pKd: −log10 of the molar value.
Biological target: T1, peripheral benzodiazepine receptor (PBR) (Homo sapiens, UniProt P30536)
T1 construct: the peripheral receptor borne by the keratinocytes; host or cells: A-431 human epidermoid carcinoma keratinocyte line
Test: Binding studies on keratinocyte line A-431 by displacement of [3H]-PK11195

By UniProt entry, the sequences of proteins in these tests, tags left out.
UniProt P30536, whole entry: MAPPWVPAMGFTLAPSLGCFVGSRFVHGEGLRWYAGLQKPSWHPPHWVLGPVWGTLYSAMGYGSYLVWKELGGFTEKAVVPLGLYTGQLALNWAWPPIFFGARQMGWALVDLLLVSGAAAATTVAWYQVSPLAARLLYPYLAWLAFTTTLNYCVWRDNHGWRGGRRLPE

Compound `CCC(C)N(C)C(=O)c1cc2ccccc2c(-c2ccccc2Cl)n1` (stereo not shown) [[^3H]-PK11195] has a pKd of 8.82.
